Results as given in US9115093B2, “Substituted bicyclic dihydropyrimidinones and their use as inhibitors of neutrophil elastase activity” (Boehringer Ingelheim International GmbH, priority 2013, dated 2015).

Protein sequences, listed by entry. Tags and fused reporters are not part of them. Residues count along the entry.
UniProt P08246, 30-247 limits assumed: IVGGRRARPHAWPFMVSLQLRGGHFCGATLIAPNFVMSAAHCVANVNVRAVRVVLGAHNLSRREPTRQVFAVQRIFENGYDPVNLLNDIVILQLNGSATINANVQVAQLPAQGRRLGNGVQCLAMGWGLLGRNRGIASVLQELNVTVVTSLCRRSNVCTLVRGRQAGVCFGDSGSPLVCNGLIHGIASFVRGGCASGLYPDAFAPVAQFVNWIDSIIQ

Target: Human neutrophil elastase (Homo sapiens, UniProt P08246)
Experiment: Human Neutrophil Elastase Assay
Format: biochemical
Conditions: substrate MeOSuc-Ala-Ala-Pro-Val-AMC, pH 7.5, room temperature

Row | IC50 [nM] | Structure (SMILES)
1 | < 1 | CS(=O)(=O)c1cc(C#N)ccc1[C@@H]1C2=C(CCCC2=O)N(c2cccc(C(F)(F)F)c2)C(=O)N1C(=O)NC12CC(C1)C2
2 | 1.6 | COC1CCN(C(=O)CN2C(=O)N(c3cccc(C(F)(F)F)c3)C3=C(C(=O)CCC3)C2c2ccc(C#N)cc2S(C)(=O)=O)CC1 (stereo not drawn)
3 | 1.3 | COCCCN1C(=O)N(c2cccc(C(F)(F)F)c2)C2=C(C(=O)CCC2)C1c1ccc(C#N)cc1S(C)(=O)=O (stereo not drawn)
